Data taken from patent publication US20250242060A1, “CHEMOGENETIC REGULATION OF PEPTIDE FUNCTION” (priority 2022, published 2025).

Tested on: mu-opioid receptor (MOR)
Assay: GloSensor cAMP assay, single chain met-enkephalin-CapC-MOR
Settings: HEK 293T, forskolin stimulated, 10 micromolar

C=CCN1CC[C@]23c4c5ccc(O)c4O[C@H]2C(=O)CC[C@@]3(O)[C@H]1C5 [naloxone]
Change of luminescence signal: sharp increase
